The text below walks through data of PMC3059999.

Molecules are shown by their SMILES. This is a selection: effects in other tests are not listed, and their absence says nothing.

The assay has as its system GABAA receptor. Nature of the assay: […]-TBPS radioligand displacement, full dose-response; supported by […]-TBOB displacement and reduced GABA-evoked currents in BLA neurons.

Regarding `O=[N+]([O-])N1CN([N+](=O)[O-])CN([N+](=O)[O-])C1`, the inhibitory constant (Ki) turned out to be 21.1 µM.
